Assay results published in patent US20240050524A1, “DELIVERY OF ABETA VARIANTS FOR AGGREGATION INHIBITION” (Baylor College of Medicine, priority 2020, published 2024).

Target: wild-type Aβ42 peptide (human)
Test: cell-based or functional assay

## wild-type Aβ42 peptide
  ThT fluorescence, self-aggregation of the peptide alone (10 µM); time to plateau: < 1 h
